Results from patent US11090304B2 (Amgen Inc., priority 2018, dated 2021).

By UniProt entry, the sequences of proteins in these tests, tags left out. Residues count along the entry.
UniProt P01116, 1-169 isoform 2 C118A/G12C limits assumed: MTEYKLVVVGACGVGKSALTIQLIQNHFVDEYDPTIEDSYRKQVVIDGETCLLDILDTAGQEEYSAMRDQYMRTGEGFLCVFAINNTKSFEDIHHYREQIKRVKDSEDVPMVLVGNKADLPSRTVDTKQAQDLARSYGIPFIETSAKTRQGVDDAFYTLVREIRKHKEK

Legend:
[1] = target: GDP-bound KRAS protein (aa 1-169), containing both G12C and C118A amino acid substitutions (Homo sapiens, UniProt P01116, C118A/G12C); experiment: Coupled nucleotide exchange assay (SOS-mediated, AlphaScreen); format: biochemical; details: read-out: Coupled exchange IC50 (5 min); 5 min compound pre-incubation
[2] = test system: Phosphorylation of ERK1/2 in MIA PaCa-2 cells; experiment: Phospho-ERK1/2 MSD assay in MIA PaCa-2 cells; format: cell-based; details: read-out: p-ERK IC50 (2 h; MIA PaCa-2), 2 h compound treatment

In the case of `C=CC(=O)N1CCN(c2nc(=O)n(-c3cccnc3C(C)(C)C)c3nc(-c4c(O)cccc4F)c(Cl)cc23)[C@@H](C)C1` (single isomer, unassigned) [Example 54-103-1], the IC50 [1] is reported as 136 nM and the IC50 [2] is reported as 173 nM.
